In ChEMBL document CHEMBL4196121, “Meridianin D Analogues Display Antibiofilm Activity against MRSA and Increase Colistin Efficacy in Gram-Negative Bacteria” (ACS Med Chem Lett, 2018):

Key:
Acinetobacter baumannii [1] = test: Antibacterial activity against Acinetobacter baumannii isolate 4106 after 16 hrs by broth microdilution assay; format: organism-based
Acinetobacter baumannii [2] = test: Antibacterial activity against Acinetobacter baumannii ATCC 19606 after 16 hrs by broth microdilution assay; format: organism-based, ATCC 19606 = CIP 70.34 = JCM 6841
Klebsiella pneumoniae [3] = test: Antibacterial activity against Klebsiella pneumoniae isolate C3 after 16 hrs by broth microdilution assay
Escherichia coli [4] = test: Antibacterial activity against Escherichia coli ATCC 25922 expressing mcr1 gene after 16 hrs by broth microdilution assay; format: organism-based; details: in vitro
Acinetobacter baumannii [5] = test: Antibacterial activity against Acinetobacter baumannii ATCC 17978 expressing mcr1 gene after 16 hrs by broth microdilution assay; format: organism-based; details: in vitro
Acinetobacter baumannii [6] = test: Antibacterial activity against Acinetobacter baumannii isolate 3941 after 16 hrs by broth microdilution assay; format: organism-based
Klebsiella pneumoniae [7] = test: Antibacterial activity against Klebsiella pneumoniae ATCC 2146 expressing NDM1 gene after 16 hrs by broth microdilution assay; format: organism-based
Acinetobacter baumannii [8] = test: Antibacterial activity against Acinetobacter baumannii ATCC 17978 after 16 hrs by broth microdilution assay; format: organism-based
Acinetobacter baumannii [9] = test: Antibacterial activity against Acinetobacter baumannii isolate 5075 after 16 hrs by broth microdilution assay; format: organism-based
Escherichia coli [10] = test: Antibacterial activity against Escherichia coli ATCC 25922 after 16 hrs by broth microdilution assay; format: organism-based
Klebsiella pneumoniae [11] = test: Antibacterial activity against Klebsiella pneumoniae isolate B9 after 16 hrs by broth microdilution assay; details: in vivo

Measured: MIC

Cl.Nc1nccc(-c2c[nH]c3c(Br)cccc23)n1
> 200 µM: Acinetobacter baumannii [1] | Acinetobacter baumannii [2] | Klebsiella pneumoniae [3] | Escherichia coli [4] | Acinetobacter baumannii [5] | Acinetobacter baumannii [6] | Klebsiella pneumoniae [7] | Acinetobacter baumannii [8] | Acinetobacter baumannii [9] | Escherichia coli [10] | Klebsiella pneumoniae [11]

Cl.Nc1nccc(-c2c[nH]c3ccccc23)n1
> 200 µM: Acinetobacter baumannii [1] | Acinetobacter baumannii [2] | Klebsiella pneumoniae [3] | Escherichia coli [4] | Acinetobacter baumannii [5] | Acinetobacter baumannii [6] | Klebsiella pneumoniae [7] | Acinetobacter baumannii [8] | Acinetobacter baumannii [9] | Escherichia coli [10] | Klebsiella pneumoniae [11]

Cl.Nc1nccc(-c2c[nH]c3cccc(Br)c23)n1
> 200 µM: Acinetobacter baumannii [1] | Acinetobacter baumannii [2] | Klebsiella pneumoniae [3] | Escherichia coli [4] | Acinetobacter baumannii [5] | Acinetobacter baumannii [6] | Klebsiella pneumoniae [7] | Acinetobacter baumannii [8] | Acinetobacter baumannii [9] | Escherichia coli [10] | Klebsiella pneumoniae [11]

Cl.Nc1nccc(-c2c[nH]c3cc(Cl)ccc23)n1
> 200 µM: Acinetobacter baumannii [1] | Acinetobacter baumannii [2] | Klebsiella pneumoniae [3] | Escherichia coli [4] | Acinetobacter baumannii [5] | Acinetobacter baumannii [6] | Klebsiella pneumoniae [7] | Acinetobacter baumannii [8] | Acinetobacter baumannii [9] | Escherichia coli [10] | Klebsiella pneumoniae [11]
